In the assay the target is C-X-C chemokine receptor type 4 (Homo sapiens, UniProt P61073). Kind of assay: Agonist activity at CXCR4 in human CCRF-CEM cells assessed as induction of Ca2+ flux measured for 90 secs by calcium dye-based fluorescence assay. The format is functional, cell-based. Background: A change in cytosolic calcium serves as a functional read-out for many receptors and channels.

Amino acid sequences for entries named in this document (tags omitted).
UniProt P61073, whole entry: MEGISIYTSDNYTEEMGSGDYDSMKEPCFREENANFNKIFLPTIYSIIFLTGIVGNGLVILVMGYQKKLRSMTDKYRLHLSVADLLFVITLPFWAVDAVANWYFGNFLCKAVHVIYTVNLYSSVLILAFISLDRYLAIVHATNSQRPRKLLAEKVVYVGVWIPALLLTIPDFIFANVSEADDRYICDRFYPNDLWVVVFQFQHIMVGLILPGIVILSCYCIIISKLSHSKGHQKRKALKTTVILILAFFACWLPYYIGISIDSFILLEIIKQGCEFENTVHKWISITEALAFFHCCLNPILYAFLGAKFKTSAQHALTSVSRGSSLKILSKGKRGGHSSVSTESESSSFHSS

The source of these data is ChEMBL document CHEMBL4052827, “Discovery of Tetrahydroisoquinoline-Containing CXCR4 Antagonists with Improved in Vitro ADMET Properties” (J Med Chem, 2018).

One may read the EC50 as the concentration needed to bring the measured effect to its halfway point.

As for `C(=C\CN(C[C@H]1Cc2ccccc2CN1)[C@H]1CCCc2cccnc21)/CNCc1ccncc1`, the EC50 was above 30 µM.
